Assay results as given in publication PMC9669179 (Epilepsia, 2022).

Details: Sprague Dawley, rat, in vivo

## CCCC(CCC)C(=O)O [VPA, sodium valproate]
  Plasma Dose Prop (AUC): 1.58
